Patent EP0399716A1, “Hypoallergenic steroidal anesthetic/hypnotic compositions” (INNOVET, INC., priority 1989, dated 1990)

System: horses
Test: Alfaxalone/HPCD anesthesia in the horse
Settings: after xylazine premedication
Experimental: In the first stage, two horses were anesthetized after heavy premedication with xylazine (0.6 mg/kg). […] Heart rate, respiratory rate, blood pressure, ECG and ventilation were monitored throughout the anesthesia period.
The same parameters as in the first stage were monitored.
Cardiopulmonary parameters were monitored as before.
To provide some comparison in the above stages, the two horses were anesthetized with thiamylal sodium (8 mg/kg) after the same premedication as before and a similar monitoring regime followed.
A third horse was obtained and the same regimen was followed as in the third stage, but three "top-ups" of one-third induction dose were administered at 10 minute intervals. Similar monitoring as above was continued.
Blood pressure was measured from an acutely placed antraarterial catheter and read through a transducer/digital readout system which included an ECG tracing oscilloscope.

## CC(=O)[C@H]1CC[C@H]2[C@@H]3CC[C@H]4C[C@H](O)CC[C@]4(C)[C@H]3C(=O)C[C@]12C (stereo in doubt) [alfaxalone, 3α-hydroxy-5α-pregnane-11,20-dione]
  blood pressure effect: hypertension
